Reference: BindingDB's records for PubMed 10869375 (R. W. Johnson Pharmaceutical Research Institute, 2000)
Several values for one entry are separate records, joined by “and”; a condition that tells them apart may be missing. Identical values can stand only once.

Sequences of proteins named here, by UniProt entry; tags and fusion partners are left off.
UniProt Q5PPG3, whole entry: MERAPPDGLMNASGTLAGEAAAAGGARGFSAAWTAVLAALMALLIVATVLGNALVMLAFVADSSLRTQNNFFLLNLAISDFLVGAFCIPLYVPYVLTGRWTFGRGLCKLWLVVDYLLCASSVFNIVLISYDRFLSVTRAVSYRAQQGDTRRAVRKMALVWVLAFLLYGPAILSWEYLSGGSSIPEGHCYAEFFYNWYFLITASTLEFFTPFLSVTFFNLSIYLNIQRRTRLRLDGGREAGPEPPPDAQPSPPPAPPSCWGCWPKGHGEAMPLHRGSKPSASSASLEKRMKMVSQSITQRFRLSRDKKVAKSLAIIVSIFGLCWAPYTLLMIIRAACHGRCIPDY

Biological target: Hrh3 protein (Rattus norvegicus, UniProt Q5PPG3)

**Q.** Which Ki does the source give for `NC(=NCc1ccc(Cl)cc1)SCCCc1cnc[nH]1` [VUF 9153] here?
**A.** The Ki was 0.5 nM and 0.4 nM.
